These results are taken from ChEMBL document CHEMBL4840326, “Discovery of an M-Substituted N-Cyclopropylmethyl-7α-phenyl-6,14-endoethanotetrahydronorthebaine as a Selective, Potent, and Orally Active κ-Opioid Receptor Agonist with an Improved Central Nervous System Safety Profile” (2021).

Sequences of proteins named here, by UniProt entry; tags and fusion partners are left off. A change or cut given only in a name is not applied to a line headed by its entry.
UniProt P41145: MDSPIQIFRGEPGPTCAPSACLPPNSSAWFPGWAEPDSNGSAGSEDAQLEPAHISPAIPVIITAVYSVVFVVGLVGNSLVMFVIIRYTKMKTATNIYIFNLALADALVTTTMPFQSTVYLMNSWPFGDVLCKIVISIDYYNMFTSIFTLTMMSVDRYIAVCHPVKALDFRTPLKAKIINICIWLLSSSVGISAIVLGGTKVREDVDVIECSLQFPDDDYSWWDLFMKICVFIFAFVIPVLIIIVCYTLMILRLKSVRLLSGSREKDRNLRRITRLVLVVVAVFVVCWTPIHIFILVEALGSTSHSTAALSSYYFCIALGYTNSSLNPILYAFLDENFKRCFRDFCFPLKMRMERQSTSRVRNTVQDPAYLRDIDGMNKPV

Test [1] in a line: Selectivity ratio of Ki for displacement of [3H]DPDPE from rat delta opioid receptor expressed in CHO cell membrane to Ki for displacement of [3H]U69,593 from human kappa opioid receptor expressed in CHO cell membrane. (In general: Displacement assays read how much labelled ligand stays bound in the presence of the test substance.)
A short description of test [2]: Selectivity ratio of Ki for displacement of [3H]DAMGO from rat mu opioid receptor expressed in CHO cell membrane to Ki for displacement of [3H]U69,593 from human kappa opioid receptor expressed in CHO cell membrane.
In test [3] the test system is Mus musculus. As to the kind of experiment: Induction of conditioned place aversion in mouse at 0.1 to 3.4 mg/kg, ip treated for 3.5 hrs in the afternoon session of preconditioning phase by placing in preferred side for 30 mins followed by test phase after 24 hrs. To be noted: dose 0.1-3.4 mg/kg, time 28.0 hrs.
The target of test [4] is Kappa-type opioid receptor (Homo sapiens) (UniProt P41145). As to the kind of experiment: Agonist activity at human kappa opioid receptor expressed in CHO cell membrane at 1 uM incubated for 1 hr by [35S]GTPgammaS binding based liquid scintillation counting method relative to control. The note with it: filed as agonist. A general note: GTPγS resists hydrolysis and so accumulates on activated G proteins.

Test [5] deals with Mus musculus. In words: Induction of conditioned place aversion in mouse at 5 mg/kg, ip treated for 15 mins in the afternoon session of preconditioning phase by placing in preferred side for 30 mins followed by test phase after 24 hrs. The note with it: time 24.75 hrs.

Structures are written as SMILES. The source made the active and inactive calls. The calls are words filed in the database; no cut-off is given here.

Consider `COc1ccc2c3c1O[C@H]1[C@@]4(OC)CC[C@@]5(C[C@@H]4c4cccc(NCc6ccc(C(F)(F)F)cc6)c4)[C@@H](C2)N(CC2CC2)CC[C@]315`, for which the results for the Ratio Ki in test [1] and in test [2] were > 98 and 31, respectively.
For `COc1ccc(CNc2cccc([C@H]3C[C@@]45CC[C@]3(OC)[C@@H]3Oc6c(OC)ccc7c6[C@@]34CCN(CC3CC3)[C@@H]5C7)c2)cc1`, the outcome in test [3] was inactive.
Take `COc1ccc2c3c1O[C@H]1[C@@]4(OC)CC[C@@]5(C[C@@H]4c4cccc(NCc6ccc(OC(F)(F)F)cc6)c4)[C@@H](C2)N(CC2CC2)CC[C@]315`: the Ratio Ki in test [2] came out at 0.6.
As for `COc1ccc2c3c1O[C@H]1[C@@]4(OC)CC[C@@]5(C[C@@H]4c4cccc(NCC(O)COc6cccc7[nH]c8ccccc8c67)c4)[C@@H](C2)N(CC2CC2)CC[C@]315` (some centres not stated), the Ratio Ki came out at 31.9 in test [1] and 16 in test [2].
The corresponding values for `COc1ccc2c3c1O[C@H]1[C@@]4(OC)CC[C@@]5(C[C@@H]4c4cccc(NCc6ccc(OCC7CC7)cc6)c4)[C@@H](C2)N(CC2CC2)CC[C@]315` are > 50 and 1.8.
As for `CN(C(=O)Cc1ccc(Cl)c(Cl)c1)[C@H]1CCCC[C@@H]1N1CCCC1`, the Ratio Ki was > 820 in test [1] and 229 in test [2]. Besides, the Emax (usually the greatest response seen or fitted, relative to the assay's reference) in test [4] stood at 234%. The result in test [5] was Active.
